Results taken from PubChem BioAssay (NCI).
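Growth conditions: 96-well plates. Treatment: test compound, 48 hours, 5 concentrations. Analysis: linear interpolation between bracketing concentrations; unreached endpoints set to highest concentration. The concentration for 50% growth inhibition is given as GI50. At the TGI there is no net growth.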

Tested on: MDA-MB-468 breast
Experiment: NCI anticancer screen, dose series, 48 h

With NCCc1ccc(N(CCCl)CCCl)cc1 the GI50 was 1.27 µM and the TGI was 6.08 µM.
